PubChem BioAssay (NCI)
“And” between values parts separate entries of the source, which are not always exact repeats. Identical values can stand only once.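 Five concentrations, 48 hours, 96-well plates. Abbreviation: GI50, concentration required for 50% inhibition of growth. TGI: concentration producing complete growth inhibition.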

What was measured:
Test in all cases: NCI tumour cell line growth inhibition, 48 h
HCC-2998 colon = tested on: HCC-2998 colon
IGROV1 ovarian = tested on: IGROV1 ovarian
MALME-3M melanoma = tested on: MALME-3M melanoma
NCI-H23 lung = tested on: NCI-H23 lung
PC-3 prostate = tested on: PC-3 prostate
ACHN renal = tested on: ACHN renal
OVCAR-3 ovarian = tested on: OVCAR-3 ovarian
SR leukemia = tested on: SR leukemia
HCT-116 colon = tested on: HCT-116 colon
NCI-H460 lung = tested on: NCI-H460 lung
HT29 colon = tested on: HT29 colon
UACC-257 melanoma = tested on: UACC-257 melanoma
COLO 205 colon = tested on: COLO 205 colon
TK-10 renal = tested on: TK-10 renal
HCT-15 colon = tested on: HCT-15 colon
KM12 colon = tested on: KM12 colon
UACC-62 melanoma = tested on: UACC-62 melanoma
U251 CNS = tested on: U251 CNS
CAKI-1 renal = tested on: CAKI-1 renal
SNB-19 CNS = tested on: SNB-19 CNS
UO-31 renal = tested on: UO-31 renal
786-0 renal = tested on: 786-0 renal
SN12C renal = tested on: SN12C renal
MDA-MB-435 = tested on: MDA-MB-435
SK-MEL-2 melanoma = tested on: SK-MEL-2 melanoma
NCI-H322M lung = tested on: NCI-H322M lung
SF-295 CNS = tested on: SF-295 CNS
CCRF-CEM leukemia = tested on: CCRF-CEM leukemia
MDA-MB-231 breast = tested on: MDA-MB-231 breast
EKVX NSCLC = tested on: EKVX NSCLC
OVCAR-5 ovarian = tested on: OVCAR-5 ovarian
SNB-75 CNS = tested on: SNB-75 CNS
NCI-H522 lung = tested on: NCI-H522 lung
HL-60(TB) leukemia = tested on: HL-60(TB) leukemia
NCI-H226 lung = tested on: NCI-H226 lung
A549 NSCLC = tested on: A549 NSCLC
BT-549 breast = tested on: BT-549 breast
T-47D breast = tested on: T-47D breast
A498 renal = tested on: A498 renal
HOP-92 NSCLC = tested on: HOP-92 NSCLC
LOX IMVI melanoma = tested on: LOX IMVI melanoma
HOP-62 NSCLC = tested on: HOP-62 NSCLC
SK-MEL-28 melanoma = tested on: SK-MEL-28 melanoma
NCI/ADR-RES ovarian = tested on: NCI/ADR-RES ovarian
MOLT-4 leukemia = tested on: MOLT-4 leukemia
MCF7 breast = tested on: MCF7 breast
SW-620 colon = tested on: SW-620 colon
MDA-N = tested on: MDA-N
SF-539 CNS = tested on: SF-539 CNS
SK-MEL-5 melanoma = tested on: SK-MEL-5 melanoma
RPMI-8226 leukemia = tested on: RPMI-8226 leukemia
M14 melanoma = tested on: M14 melanoma
SF-268 CNS = tested on: SF-268 CNS
RXF 393 renal = tested on: RXF 393 renal
K-562 leukemia = tested on: K-562 leukemia
SK-OV-3 ovarian = tested on: SK-OV-3 ovarian
HS 578T breast = tested on: HS 578T breast
OVCAR-8 ovarian = tested on: OVCAR-8 ovarian
DU-145 prostate = tested on: DU-145 prostate
OVCAR-4 ovarian = tested on: OVCAR-4 ovarian
XF 498 CNS = tested on: XF 498 CNS
DMS 114 small cell lung = tested on: DMS 114 small cell lung
M19-MEL melanoma = tested on: M19-MEL melanoma
DMS 273 small cell lung = tested on: DMS 273 small cell lung
HOP-18 NSCLC = tested on: HOP-18 NSCLC
KM20L2 colon = tested on: KM20L2 colon
DLD-1 colon = tested on: DLD-1 colon
SNB-78 CNS = tested on: SNB-78 CNS

## CC(=O)O[C@H]1C[C@@H]2OC3C=C(C)CCC3(C)[C@@]1(C)[C@@]21CO1 (stereo not given in full)
HCC-2998 colon
  GI50: 298 nM and 258 nM
  TGI: 1240 nM and 1010 nM
IGROV1 ovarian
  GI50: 486 nM and 276 nM
  TGI: 4780 nM and 2050 nM
MALME-3M melanoma
  GI50: 349 nM and 273 nM
  TGI: 2170 nM and 1230 nM
NCI-H23 lung
  GI50: 300 nM and 506 nM
  TGI: 1500 nM and 2720 nM
PC-3 prostate
  GI50: 625 nM and 797 nM
  TGI: 7080 nM and 5610 nM
ACHN renal
  GI50: 404 nM and 272 nM
  TGI: 2150 nM and 1490 nM
OVCAR-3 ovarian
  GI50: 419 nM and 449 nM
  TGI: 2480 nM and 4380 nM
SR leukemia
  GI50: 378 nM and 93.5 nM
HCT-116 colon
  GI50: 243 nM and 167 nM
  TGI: 1820 nM and 1330 nM
NCI-H460 lung
  GI50: 320 nM and 102 nM
  TGI: 2400 nM and 453 nM
HT29 colon
  GI50: 312 nM and 250 nM
  TGI: 1610 nM and 2290 nM
UACC-257 melanoma
  GI50: 291 nM and 253 nM
  TGI: 1260 nM and 2040 nM
COLO 205 colon
  GI50: 188 nM and 153 nM
  TGI: 372 nM and 426 nM
TK-10 renal
  GI50: 1170 nM and 457 nM
  TGI: 7160 nM and 5850 nM
HCT-15 colon
  GI50: 303 nM and 208 nM
  TGI: 2710 nM and 1660 nM
KM12 colon
  GI50: 359 nM and 277 nM
  TGI: 5040 nM and 2070 nM
UACC-62 melanoma
  GI50: 310 nM and 275 nM
  TGI: 1590 nM and 2200 nM
U251 CNS
  GI50: 259 nM and 360 nM
  TGI: 1340 nM and 6020 nM
CAKI-1 renal
  GI50: 594 nM and 507 nM
  TGI: 4170 nM and 6200 nM
SNB-19 CNS
  GI50: 267 nM and 321 nM
  TGI: 4110 nM and 10100 nM
UO-31 renal
  GI50: 729 nM and 521 nM
  TGI: 6600 nM and 2350 nM
786-0 renal
  GI50: 469 nM and 456 nM
  TGI: 4200 nM and 3430 nM
SN12C renal
  GI50: 371 nM and 495 nM
  TGI: 4760 nM and 2840 nM
MDA-MB-435
  GI50: 296 nM and 237 nM
  TGI: 1290 nM and 1510 nM
SK-MEL-2 melanoma
  GI50: 301 nM and 330 nM
  TGI: 911 nM and 1910 nM
NCI-H322M lung
  GI50: 379 nM and 429 nM
  TGI: 3710 nM and 3500 nM
SF-295 CNS
  GI50: 548 nM and 738 nM
  TGI: 3520 nM and 5110 nM
CCRF-CEM leukemia
  GI50: 235 nM and 98.9 nM
  TGI: 978 nM and 1580 nM
MDA-MB-231 breast
  GI50: 366 nM and 303 nM
  TGI: 2130 nM and 1820 nM
EKVX NSCLC
  GI50: 491 nM and 390 nM
  TGI: 3990 nM and 2250 nM
OVCAR-5 ovarian
  GI50: 938 nM and 1230 nM
  TGI: 6280 nM and 8550 nM
SNB-75 CNS
  GI50: 278 nM and 231 nM
  TGI: 1630 nM and 1650 nM
NCI-H522 lung
  GI50: 352 nM and 278 nM
  TGI: 1700 nM and 880 nM
HL-60(TB) leukemia
  GI50: 252 nM and 167 nM
NCI-H226 lung
  GI50: 302 nM and 244 nM
  TGI: 1780 nM and 1190 nM
A549 NSCLC
  GI50: 322 nM and 365 nM
  TGI: 2490 nM and 3910 nM
BT-549 breast
  GI50: 376 nM and 744 nM
  TGI: 2800 nM and 10500 nM
T-47D breast
  GI50: 257 nM and 262 nM
  TGI: 1130 nM and 3100 nM
A498 renal
  GI50: 335 nM and 651 nM
  TGI: 1290 nM and 2710 nM
HOP-92 NSCLC
  GI50: 218 nM and 408 nM
  TGI: 948 nM and 3230 nM
LOX IMVI melanoma
  GI50: 156 nM and 58 nM
  TGI: 653 nM and 229 nM
HOP-62 NSCLC
  GI50: 2010 nM and 1980 nM
  TGI: 7420 nM and 17100 nM
SK-MEL-28 melanoma
  GI50: 256 nM and 233 nM
  TGI: 774 nM and 2400 nM
NCI/ADR-RES ovarian
  GI50: 359 nM and 307 nM
  TGI: 3500 nM and 2140 nM
MOLT-4 leukemia
  GI50: 340 nM and 185 nM
  TGI: 3680 nM and 2250 nM
MCF7 breast
  GI50: 243 nM and 334 nM
SW-620 colon
  GI50: 282 nM and 279 nM
  TGI: 2630 nM and 24100 nM
MDA-N
  GI50: 261 nM
  TGI: 1440 nM
SF-539 CNS
  GI50: 267 nM and 284 nM
  TGI: 653 nM and 1020 nM
SK-MEL-5 melanoma
  GI50: 161 nM and 123 nM
  TGI: 368 nM and 783 nM
RPMI-8226 leukemia
  GI50: 306 nM and 269 nM
  TGI: 1450 nM and 1110 nM
M14 melanoma
  GI50: 235 nM and 217 nM
  TGI: 619 nM and 1110 nM
SF-268 CNS
  GI50: 371 nM and 343 nM
  TGI: 3480 nM and 2090 nM
RXF 393 renal
  GI50: 266 nM and 331 nM
  TGI: 1520 nM and 1580 nM
K-562 leukemia
  GI50: 201 nM
  TGI: 8750 nM
SK-OV-3 ovarian
  GI50: 431 nM and 627 nM
  TGI: 4570 nM and 6170 nM
HS 578T breast
  GI50: 366 nM and 278 nM
  TGI: 3180 nM and 1340 nM
OVCAR-8 ovarian
  GI50: 334 nM and 264 nM
  TGI: 4310 nM and 1640 nM
DU-145 prostate
  GI50: 440 nM and 359 nM
  TGI: 3450 nM and 2590 nM
OVCAR-4 ovarian
  GI50: 265 nM and 316 nM
  TGI: 939 nM and 3310 nM

## CC1(C)CN1P(=O)(Nc1ncccn1)N1CC1(C)C (stereo not given)
HCC-2998 colon
  TGI: > 100000 nM
IGROV1 ovarian
  TGI: > 100000 nM
MALME-3M melanoma
  TGI: > 100000 nM
NCI-H23 lung
  TGI: > 100000 nM
ACHN renal
  TGI: > 100000 nM
XF 498 CNS
  TGI: > 100000 nM
OVCAR-3 ovarian
  TGI: > 100000 nM
SR leukemia
  TGI: > 100000 nM
HCT-116 colon
  TGI: > 100000 nM
NCI-H460 lung
  TGI: > 100000 nM
HT29 colon
  TGI: > 100000 nM
UACC-257 melanoma
  TGI: > 100000 nM
COLO 205 colon
  TGI: > 100000 nM
DMS 114 small cell lung
  TGI: > 100000 nM
TK-10 renal
  TGI: > 100000 nM
HCT-15 colon
  TGI: > 100000 nM
KM12 colon
  TGI: > 100000 nM
UACC-62 melanoma
  TGI: > 100000 nM
U251 CNS
  TGI: > 100000 nM
CAKI-1 renal
  TGI: 43800 nM
SNB-19 CNS
  TGI: > 100000 nM
UO-31 renal
  TGI: > 100000 nM
786-0 renal
  TGI: > 100000 nM
M19-MEL melanoma
  TGI: > 100000 nM
SN12C renal
  TGI: > 100000 nM
DMS 273 small cell lung
  TGI: > 100000 nM
SK-MEL-2 melanoma
  TGI: > 100000 nM
NCI-H322M lung
  TGI: > 100000 nM
HOP-18 NSCLC
  TGI: > 100000 nM
SF-295 CNS
  TGI: > 100000 nM
CCRF-CEM leukemia
  TGI: > 100000 nM
EKVX NSCLC
  TGI: > 100000 nM
OVCAR-5 ovarian
  TGI: > 100000 nM
SNB-75 CNS
  TGI: > 100000 nM
NCI-H522 lung
  TGI: > 100000 nM
HL-60(TB) leukemia
  TGI: > 100000 nM
NCI-H226 lung
  TGI: > 100000 nM
A549 NSCLC
  TGI: > 100000 nM
A498 renal
  TGI: > 100000 nM
HOP-92 NSCLC
  TGI: > 100000 nM
LOX IMVI melanoma
  TGI: > 100000 nM
HOP-62 NSCLC
  TGI: > 100000 nM
SK-MEL-28 melanoma
  TGI: > 100000 nM
MOLT-4 leukemia
  TGI: > 100000 nM
SW-620 colon
  TGI: > 100000 nM
KM20L2 colon
  TGI: > 100000 nM
SF-539 CNS
  TGI: > 100000 nM
SK-MEL-5 melanoma
  TGI: > 100000 nM
RPMI-8226 leukemia
  TGI: > 100000 nM
M14 melanoma
  TGI: > 100000 nM
DLD-1 colon
  TGI: > 100000 nM
SF-268 CNS
  TGI: > 100000 nM
RXF 393 renal
  TGI: > 100000 nM
K-562 leukemia
  TGI: > 100000 nM
SK-OV-3 ovarian
  TGI: > 100000 nM
OVCAR-8 ovarian
  TGI: > 100000 nM
OVCAR-4 ovarian
  TGI: > 100000 nM
SNB-78 CNS
  TGI: > 100000 nM
